According to patent US6867193B1, “Amino acid-containing albumin preparation” (Nipro Corporation, priority 1999, dated 2005):

Legend:
[1] = test system: Ammonia encephalopathy model animals; experiment: ammonia encephalopathy model rat: free amino acid concentration in serum and Fischer ratio (Test Example 4); type: in vivo
Procedure: A test drug was prepared by dissolving human serum albumin in the amino acid solution (components are disclosed in Table 3) in the same manner as in Preparation Example 3 to form a desired concentration (0.01, 0.1, 1.0 w/v %) of the solution. 5 male SD rats (body weight 200 to 230 g) as test animals were used per one group. Ammonia encephalopathy model animals were created by partially removing the liver and then administering 2 M ammonium acetate solution. The test drug was injected to an abdominal aorta in an amount of 10 ml/kg 2 minutes before administration of the ammonium solution. After 1.5 hours from the administration of the ammonium solution, the blood was collected from the abdominal aorta under etherization. An equivalent volume of 5 w/v % trichloroacetic acid solution was promptly added into the blood to centrifuge and, thereafter, the supernatant was measured using an amino acid analyzer (D-7000, manufactured by Hitachi) to determine the free amino acid concentration in the serum. The Fischer ratio was determined from the amino acid concentration in the serum.

[2] = test system: hepatic encephalopathy model animal; experiment: hepatic encephalopathy model rat (partial hepatectomy + ammonium acetate): coma period and plasma ammonia (Test Examples 1-3); type: in vivo
Procedure: A test drug was prepared by dissolving rat serum albumin (RSA, manufactured by Sigma Corp.) in an amino acid solution (components are disclosed in Table 3) to form a 0.1 w/v % or 1.0 w/v % solution, adding 1.0 N hydrochloric acid thereto to adjust the pH to 6.6 to 7.4 according to Preparation Example 3, filling the solution into a 500 ml infusion bottle and heating at 60° C. for 10 hours after sealing the bottle with a rubber plug. In comparison, physiological saline or the amino acid solution (pH 6.6 to 7.4), respectively, was used in the same way.
Rat partial hepatectomy was carried out by performing a laparotomy of a male SD rat (body weight of 200 to 230 g) under etherization, removing a lateral left lobe, a medial left lobe and a medial right lobe (67%) and closing the abdomen (Archs. Pathol., 1985; 12: 186-202).
A hepatic encephalopathy model animal was created by administering 2 M ammonium acetate solution at a rate of 3 ml/kg into the rat abdomen after 48 hours from the partial hepatectomy (“Kiso to Rinsho”, 1987; 21: 2509-2527).
The test drug was injected from the rat tail vein (10 ml/kg) 2 minutes before administering the ammonium solution. Subsequently, the coma period (minutes) was measured, blood was collected from the rat tail vein 30 minutes after administration of the ammonium solution, and the ammonia concentration in the blood plasma was determined by using an ammonia measuring reagent kit (brand name: Determiner NH3, manufactured by Kyowa Medics Corporation).
As well, the creation of a hepatic encephalopathy model animal was confirmed by a coma of the rat resulting from administrating an ammonium acetate solution thereto.
A test drug was prepared by dissolving human serum albumin (HSA, manufactured by Sigma Corp.) in the amino acid solution (components are disclosed in Table 3) in the same manner as in Preparation Example 3 to form a desired concentration of the solution (0.001, 0.01, 0.1 or 1.0 w/v %). 6 to 14 male SD rats (body weight 200 to 230 g) as test animals were used per one group, and creation of a hepatic encephalopathy model animal and a test method were carried out in the same manner as Test Example 1. The test drug was injected in an amount of 10 ml/kg from the tail vein.
A test drug was prepared by dissolving bovine serum albumin (BSA, manufactured by Sigma Corp.) in the amino acid solution (components bare disclosed in Table 3) in the same manner as in Preparation Example 3 to form a desired concentration of the solution (0.1 w/v % or 1.0 w/v %). Creation of a hepatic encephalopathy model animal and a test method were carried out in the same manner as Test Example 1.

[3] = Test Example 2, compared with control group

Question: Which results are given for “1.0% HSA: human serum albumin (HSA, manufactured by Sigma Corp.), 1.0% final concentration, given alone”?
Answer: improvement of Fischer ratio [1]: not improved; concentration of amino acid in the blood ([1]; 10 ml/kg abdominal aorta 2 min before ammonium solution, blood 1.5 hours after ammonium solution, mean ± standard error): 8.2 ± 0.8 µmol/dL; Fischer ratio ([1]; determined from amino acid concentration in the serum, 1.5 hours after ammonium solution, mean ± standard error): 0.97 ± 0.27; concentration of ammonia in the blood ([2]; Test Example 2 (HSA), 10 ml/kg tail vein, mean ± standard error): 116 ± 12 µmol/dL; coma period ([2]; Test Example 2 (HSA), male SD rat, 10 ml/kg tail vein, mean ± standard error): 33 ± 10 min; effect on ammonia concentration in the blood [2, 3]: no effect; effect on coma period [2, 3]: no effect
